{"source": "patent US12447159B2", "about": "(AELIS FARMA, priority 2018, dated 2025)", "key": {"[1]": {"system": "rats", "assay": "28-day oral toxicity study (GLP) in rats", "details": "rat"}, "[2]": {"assay": "AMES test +/- metabolic activation (GLP)", "type": "cell-based", "details": "highest concentration tested between 74 and 100 μM", "source_text": "[…]."}}}
{"molecule": "COc1ccc(CO[C@H]2CC[C@@]3(C)C(=CC[C@H]4[C@@H]5CC[C@H](C(C)=O)[C@@]5(C)CC[C@@H]43)C2)cc1", "note": "[3pMBP, 3β-(4-methoxybenzyloxy)pregn-5-en-20-one]", "values": [{"measurement": "NOAEL (Non observed adverse effect level)", "setting": "[1]", "value": "> 36", "unit": "mg/kg/day/28 days"}, {"measurement": "Mutagenesis", "setting": "[2]", "value": "did not show any cytotoxicity, genotoxicity and mutagenesis"}]}
